Experimental data taken from patent US20240225981A1, “Synthesized Molecule of Solketal Esters from Palm Kit Oil and Glycerin for Cosmetic and Agricultural Formulations” (BRASIL BIO FUELS S.A, priority 2023, published 2024).

Details: oral and acute toxicity tests; GHS standards

Cocoyl glyceryl solketal
GHS toxicity classification: class 5 (non-toxic)
